Test results taken from paper PMC9295256 (Journal of medicinal chemistry, 2021).

Chains of the proteins cited; added tags and fusions are not shown. Residues count along the entry.
UniProt P42676, 38-704: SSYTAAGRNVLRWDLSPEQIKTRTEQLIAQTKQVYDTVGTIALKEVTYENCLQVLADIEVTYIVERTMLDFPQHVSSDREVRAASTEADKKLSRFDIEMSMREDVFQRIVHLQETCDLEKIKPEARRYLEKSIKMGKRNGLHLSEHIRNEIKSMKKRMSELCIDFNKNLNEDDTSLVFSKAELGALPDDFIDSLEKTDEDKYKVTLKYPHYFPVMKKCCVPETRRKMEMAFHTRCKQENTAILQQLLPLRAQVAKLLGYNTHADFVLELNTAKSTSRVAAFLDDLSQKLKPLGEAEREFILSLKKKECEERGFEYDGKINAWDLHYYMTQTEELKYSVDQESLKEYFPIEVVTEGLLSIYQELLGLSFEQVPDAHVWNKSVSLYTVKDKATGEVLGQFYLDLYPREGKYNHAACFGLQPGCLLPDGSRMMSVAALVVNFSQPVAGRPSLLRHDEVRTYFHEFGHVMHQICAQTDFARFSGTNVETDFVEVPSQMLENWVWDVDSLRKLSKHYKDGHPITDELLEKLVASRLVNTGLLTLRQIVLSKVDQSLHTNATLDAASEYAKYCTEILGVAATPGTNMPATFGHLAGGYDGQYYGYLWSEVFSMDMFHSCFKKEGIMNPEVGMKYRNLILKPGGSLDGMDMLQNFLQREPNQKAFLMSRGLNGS

Target: recombinant rat Nln (Rattus norvegicus, UniProt P42676)
Experiment: Nln activation, continuous quenched fluorescence substrate
Assay type: biochemical
Settings: 100% = normal enzyme turnover; mean of n = 4, 95% CI in parentheses

SMILES	Amax, maximum % activation achieved (95% CI)
N[C@@H](Cc1c[nH]cn1)C(=O)NCCc1ccc(F)cc1 [Compound 4m, (S)-2-Amino-N-(4-fluorophenethyl)-3-(1H-imidazol-4-yl)-propanamide]	253.8 (231.2 to 278.9) %
N[C@H](Cc1c[nH]cn1)C(=O)NCCc1ccc(F)cc1 [Compound 4n, (R)-2-Amino-N-(4-fluorophenethyl)-3-(1H-imidazol-4-yl)-propanamide]	353.8 (340.6 to 368.1) %
